Values quoted from earlier work in patent US20170007618A1, “SEROTONIN 2C RECEPTOR ANTAGONISTS TO PREVENT AND TREAT STRESS-RELATED TRAUMA DISORDERS” (Massachusetts Institute of Technology, priority 2015, published 2017).

By UniProt entry, the sequences of proteins in these tests, tags left out. Residues count along the entry.
UniProt P28335, 33-458: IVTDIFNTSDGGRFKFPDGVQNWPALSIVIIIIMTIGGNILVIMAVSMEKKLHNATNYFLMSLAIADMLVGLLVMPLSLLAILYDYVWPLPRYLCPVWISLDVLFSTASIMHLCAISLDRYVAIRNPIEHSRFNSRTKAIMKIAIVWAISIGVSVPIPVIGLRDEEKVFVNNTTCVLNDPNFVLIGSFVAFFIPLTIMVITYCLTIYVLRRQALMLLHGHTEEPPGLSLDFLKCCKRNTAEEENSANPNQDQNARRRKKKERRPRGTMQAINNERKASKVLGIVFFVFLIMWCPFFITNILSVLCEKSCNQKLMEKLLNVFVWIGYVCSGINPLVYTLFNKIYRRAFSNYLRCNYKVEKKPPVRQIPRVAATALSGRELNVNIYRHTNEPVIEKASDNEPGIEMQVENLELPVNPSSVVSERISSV

Molecular target: cloned human 5-HT2C receptor (Homo sapiens, UniProt P28335)

Structure (SMILES): Cn1ccc2cc3c(cc21)CCN3C(=O)Nc1cccnc1 [SB 206553, 5-methyl-1-[(3-pyridylcarba-moyl)-1,2,3,5-tetrahydropyrrolo(2,3-f)indole]]
- pKi: 7.9
